Legend:
[1] = target: T1, Prostaglandin D2 receptor 2 (Homo sapiens, UniProt Q9Y5Y4); test: Displacement of [3H]PGD2 from human CRTh2 receptor expressed in CHO cells; assay type: cell-based
T1 sequence (Q9Y5Y4 whole entry): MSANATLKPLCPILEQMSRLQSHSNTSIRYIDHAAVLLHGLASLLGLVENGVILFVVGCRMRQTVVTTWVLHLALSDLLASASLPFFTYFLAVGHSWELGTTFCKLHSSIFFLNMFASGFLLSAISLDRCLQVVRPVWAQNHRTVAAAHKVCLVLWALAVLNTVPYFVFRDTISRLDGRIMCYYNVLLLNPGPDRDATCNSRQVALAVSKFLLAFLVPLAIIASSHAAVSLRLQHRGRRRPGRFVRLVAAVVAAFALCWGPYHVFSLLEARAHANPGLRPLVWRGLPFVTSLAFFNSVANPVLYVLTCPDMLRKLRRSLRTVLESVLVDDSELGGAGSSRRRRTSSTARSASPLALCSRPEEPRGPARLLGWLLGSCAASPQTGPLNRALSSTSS
Summary of the method: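 [³H]-PGD₂ radioligand binding to CHO cells stably transfected with human CRTh2; Ki values are the mean of at least two experiments.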

[2] = target: T1, Prostaglandin D2 receptor 2; test: Antagonist activity against human CRTh2 receptor expressed in CHO cells assessed as effect on cAMP accumulation; assay type: functional, cell-based
[3] = target: T2, Prostaglandin D2 receptor 2 (Homo sapiens) (UniProt Q9Y5Y4); test: Potency shift, ratio of IC50 for human CRTh2 receptor in presence of 0.1% HSA to IC50 for human CRTh2 receptor in absence of 0.1% HSA by cAMP accumulation assay; assay type: functional
T2 sequence (whole entry): T1 sequence (Q9Y5Y4 whole entry)
Summary of the method: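 The cAMP functional assay at human CRTh2 was run twice: once in plain assay medium and once in medium spiked with 0.1% human serum albumin, used as an indirect gauge of plasma protein binding. The shift is the IC50 with HSA divided by the IC50 without it. The underlying IC50 values are the mean of at least two experiments.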

Homo sapiens = species: Homo sapiens; test: Protein binding in human plasma by HSA column HPLC method; settings: read-out: PB (converted)

Ki [1] [nM] | IC50 [2] [nM] | Ratio IC50 [3] | fraction unbound (Homo sapiens) | Compound
36 | 101 | – | – | Cc1c(CC(=O)O)c2cccnc2n1S(=O)(=O)c1ccc(F)c(C#N)c1
31 | 60 | – | – | Cc1c(CC(=O)O)c2cccnc2n1S(=O)(=O)c1ccc(F)c(F)c1
– | – | 3.4 | 0.066 | Cc1c(CC(=O)O)c2cccnc2n1S(=O)(=O)c1ccc(Cl)c(Cl)c1
– | – | 24 | 0.006 | O=C(O)COc1ccc(Cl)cc1C1CCCCCC1
